Data on 1 molecule can be found in patent publication US20150272951A1, “COMPOUNDS FOR THE TREATMENT OF LYSOSOMAL STORAGE DISEASES” (The Hospital for Sick Children, priority 2010, published 2015).

By UniProt entry, the sequences of proteins in these tests, tags left out. Residues count along the entry.
UniProt P06865, 89-529: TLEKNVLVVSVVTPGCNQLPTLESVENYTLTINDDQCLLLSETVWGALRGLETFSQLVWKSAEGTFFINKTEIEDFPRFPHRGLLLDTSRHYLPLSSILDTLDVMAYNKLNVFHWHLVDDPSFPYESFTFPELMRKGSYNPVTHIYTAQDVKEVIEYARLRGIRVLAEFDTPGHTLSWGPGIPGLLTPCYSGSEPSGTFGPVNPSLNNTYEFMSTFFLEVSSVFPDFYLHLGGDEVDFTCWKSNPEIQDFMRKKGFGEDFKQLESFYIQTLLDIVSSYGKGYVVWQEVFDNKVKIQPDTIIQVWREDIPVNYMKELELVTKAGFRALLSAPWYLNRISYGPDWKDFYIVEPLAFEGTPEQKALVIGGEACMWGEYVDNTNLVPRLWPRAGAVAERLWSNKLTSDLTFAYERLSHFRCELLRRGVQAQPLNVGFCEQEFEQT
UniProt P07686, 315-556 limits assumed: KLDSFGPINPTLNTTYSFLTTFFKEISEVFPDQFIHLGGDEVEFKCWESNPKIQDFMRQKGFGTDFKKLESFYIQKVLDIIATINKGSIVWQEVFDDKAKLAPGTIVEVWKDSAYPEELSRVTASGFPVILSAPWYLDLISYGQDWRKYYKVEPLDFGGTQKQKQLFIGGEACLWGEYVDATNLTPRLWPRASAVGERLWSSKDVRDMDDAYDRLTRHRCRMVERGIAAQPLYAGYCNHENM
UniProt P07686, 122-311 limits assumed: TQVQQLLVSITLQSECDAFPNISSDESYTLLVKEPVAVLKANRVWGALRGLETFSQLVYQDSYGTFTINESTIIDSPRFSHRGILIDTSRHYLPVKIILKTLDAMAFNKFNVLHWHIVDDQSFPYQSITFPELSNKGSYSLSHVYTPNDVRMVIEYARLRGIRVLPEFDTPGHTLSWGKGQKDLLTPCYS

The IC50 is the concentration that inhibits the measured activity by half.

This test addresses Hex A (Homo sapiens, UniProt P06865+P07686). Description: Hex A inhibition (IC50 from dose response curves of Hex A residual activity).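 Also: remaining Hex A enzyme activity recorded across rising inhibitor doses, with dose response curves run at pH 6.5 and again at pH 4.5.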 The following applies: read-out: IC50 HexA pH 4.5; purified HexA, pH 4.5, 1.6 mM 4-methylumbelliferone-b-N-Acetylglucosamine substrate.

SMILES strings stand for the structures.

For `CCc1nc(N)nc(N)c1-c1ccccc1` [ksh3-10], the IC50 amounted to 30 µM.
